In general, IC50 refers to the concentration that gives 50% inhibition.

By UniProt entry, the sequences of proteins in these tests, tags left out. Residues count along the entry.
UniProt P06276, 29-602: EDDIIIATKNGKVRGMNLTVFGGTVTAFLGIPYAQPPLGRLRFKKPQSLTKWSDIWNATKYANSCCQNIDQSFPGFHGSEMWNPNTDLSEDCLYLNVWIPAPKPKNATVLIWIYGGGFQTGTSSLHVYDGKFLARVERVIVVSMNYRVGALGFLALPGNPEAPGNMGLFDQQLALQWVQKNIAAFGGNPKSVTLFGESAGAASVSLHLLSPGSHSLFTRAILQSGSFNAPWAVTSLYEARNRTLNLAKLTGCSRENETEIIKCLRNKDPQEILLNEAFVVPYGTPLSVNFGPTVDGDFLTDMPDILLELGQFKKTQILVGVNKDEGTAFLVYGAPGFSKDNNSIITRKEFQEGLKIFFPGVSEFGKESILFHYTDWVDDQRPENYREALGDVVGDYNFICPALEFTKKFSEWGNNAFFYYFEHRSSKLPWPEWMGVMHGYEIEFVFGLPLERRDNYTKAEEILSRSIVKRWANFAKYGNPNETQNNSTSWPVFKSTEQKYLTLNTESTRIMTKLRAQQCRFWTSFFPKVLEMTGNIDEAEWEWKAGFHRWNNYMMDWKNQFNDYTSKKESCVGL
UniProt P22303, 32-614: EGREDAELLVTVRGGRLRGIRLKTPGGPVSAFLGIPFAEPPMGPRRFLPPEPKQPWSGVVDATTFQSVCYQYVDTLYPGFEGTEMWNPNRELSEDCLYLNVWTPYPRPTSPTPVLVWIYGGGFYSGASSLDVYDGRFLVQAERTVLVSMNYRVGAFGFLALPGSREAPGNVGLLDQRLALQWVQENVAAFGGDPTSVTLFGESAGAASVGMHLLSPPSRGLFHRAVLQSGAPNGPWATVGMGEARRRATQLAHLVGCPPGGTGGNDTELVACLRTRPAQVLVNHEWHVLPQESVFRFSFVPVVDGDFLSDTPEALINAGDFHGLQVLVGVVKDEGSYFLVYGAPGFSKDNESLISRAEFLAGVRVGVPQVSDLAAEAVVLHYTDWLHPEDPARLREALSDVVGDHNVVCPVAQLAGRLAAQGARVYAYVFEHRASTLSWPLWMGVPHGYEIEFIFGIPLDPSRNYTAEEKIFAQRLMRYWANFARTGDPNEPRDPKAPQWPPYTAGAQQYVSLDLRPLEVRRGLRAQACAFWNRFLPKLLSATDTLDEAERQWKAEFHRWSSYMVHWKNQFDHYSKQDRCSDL

Data on two molecules can be found in US9238626B2 (priority 2012, dated 2016).

One test has as its target human serum BChE (Homo sapiens (Human), UniProt P06276). Briefly: BChE inhibition assay (Ellman). It counts as biochemical. Conditions: read-out: IC50 hBChE. On the procedure:
BChE inhibitory activity determinations were carried out similarly by the method of Ellman et al., using 0.02 unit/mL of human serum BChE and 300 μM butyrylthiocholine, instead of AChE and acetylthiocholine, in a final volume of 300 μL.
Results are expressed as mean±S.E.M. of at least 4 experiments performed in duplicate. DTNB, acetylthiocholine, butyrylthiocholine, and enzymes were purchased from Sigma.
In general terms: In Ellman's method for cholinesterases, released thiocholine reacts with DTNB.

The target in test [1] is recombinant human AChE (hAChE) (Homo sapiens (Human), UniProt P22303). As to conditions: read-out: IC50 hAChE. The text has this:
The results were plotted by placing the percentage of inhibition in function of the decimal log of the final inhibitor concentration.

Where a name gives a salt, the structure may show the parent alone.

As for `CC1=C[C@H]2Cc3nc4cc(Cl)ccc4c(NCCCCCCCCCNC(=O)c4cc(O)c5c(c4)C(=O)c4cccc(O)c4C5=O)c3[C@@H](C1)C2` [(+)-(Ib)•HCl, (+)-(7R,11R)—N-{9-[(3-chloro-6,7,10,11-tetrahydro-9-methyl-7,11-methanocycloocta[b]quinolin-12-yl)amino]nonyl}-9,10-dihydro-4,5-dihydroxy-9,10-dioxoanthracene-2-carboxamide], the IC50 on human serum BChE is 265 ± 21 nM; in test [1] it was 2930 ± 285 nM.

For `CC1=C[C@@H]2Cc3nc4cc(Cl)ccc4c(NCCCCCCCCCNC(=O)c4cc(O)c5c(c4)C(=O)c4cccc(O)c4C5=O)c3[C@H](C1)C2` [(−)-(Ib)•HCl, (−)-(7S,11S)—N-{9-[(3-chloro-6,7,10,11-tetrahydro-9-methyl-7,11-methanocycloocta[b]quinolin-12-yl)amino]nonyl}-9,10-dihydro-4,5-dihydroxy-9,10-dioxoanthracene-2-carboxamide], the IC50 on human serum BChE stood at 513 ± 58 nM; in test [1] it was 2.4 ± 0.2 nM.
